Source: patent US20040176573A1

Biological target: HLA-B35 (human)

## EBNA3A458-466 (peptide)
  C50: 0.8 µM
